Laboratory results from patent publication US8049063B2, “Rice bentazon and sulfonylurea herbicide resistant gene Cyp81a6” (Zhejiang University, priority 2005, dated 2011).

Test system: Norin 8m, 8077S, their F1 hybrid and F2 plants
Experiment: Allelism test: bentazon sprayed on leaves of bentazon sensitive lethal mutants and their hybrids
Format: in vivo, rice
Description: FIG. 2. Allelism test of bentazon sensitive lethal sites in Norin 8m and 8077S. a: the plants before bentazon treatment, left: Norin 8m; right: 8077S; middle: the F1 hybrid of Norin 8m and 8077S. b: the plants one week after the bentazon treatment. The applied concentration of bentazon is 1250 mg/l.
As mentioned above, the Japanese scholar Mori obtained a bentazon sensitive lethal mutant Norin 8m by γ-ray radiation treatment of Norin 8 (Mori, 1984). […] In order to verify whether the bentazon sensitive loci in both 8077S and Norin 8m are allelic, we made a cross between 8077S and Norin 8m and obtained the F1 hybrid and its selfed F2 population containing 800 plants. […] To distinguish the loci originated from 8077S and that originated from Norin 8m, we named them as cyp81A6-1 and cyp81 A6-2, respectively.

For `CC(C)N1C(=O)c2ccccc2NS1(=O)=O` [bentazon], the “outcome of treated plants (both parents and F1)” value (1250 mg/L sprayed on leaf surface at 9-10 leaves, Norin 8m, 8077S and F1, one week later) was “withered and died” and the “outcome of treated F2 plants” value (1250 mg/L, 800 F2 plants from selfed F1 of 8077S x Norin 8m) was “withered and died”.
